## AlphaSeq binding of Ab-14 light chain variants to a spike HR2 peptide

The target is the same throughout: PDVDLGDISGINAS, from the HR2 region of SARS-CoV-2 spike.

Parent scFv Ab-14: VH joined to VL by three GGGGS repeats. Changes lie in the light chain CDRs alone.
VH: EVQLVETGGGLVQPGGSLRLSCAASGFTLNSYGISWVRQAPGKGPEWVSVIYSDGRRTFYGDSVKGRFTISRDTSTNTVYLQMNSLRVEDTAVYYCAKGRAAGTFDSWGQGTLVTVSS
VL: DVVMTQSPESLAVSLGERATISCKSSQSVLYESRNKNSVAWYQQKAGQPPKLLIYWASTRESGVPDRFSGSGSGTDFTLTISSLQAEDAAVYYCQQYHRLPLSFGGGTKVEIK

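These sequences belong to a second round, designed from the earlier measurements on random variants of the parent. Several design methods are mixed in this list. In AlphaSeq, yeast of one mating type display the scFv and yeast of the other type display the target. Pairs that bind mate more often; barcode pairs of the diploids are counted by sequencing. A regression on co-assayed BCL2-family reference pairs converts the normalised counts of each replicate to an apparent Kd. Each pool was mated in six replicate cultures.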

Changes read parent residue, position, new residue, counted from the first residue of the VL shown.
Variants here have at most six changes.
Kd is apparent (estimated from mating counts) and averaged on the log scale over replicates with a signal. Smaller is tighter.
A pair that was not seen in any replicate is written "not detected"; this usually means weak binding, but a binder can also be missed.
In the paper, a design with two or fewer of six values counts as a poor binder.

| changes | apparent Kd | replicates with signal |
|---|---|---|
| Y31E/N35M/Q95N | not detected | 0 of 6 |
| S25L/S26Q/V29E/L30Q/W56S | 570 pM | 6 of 6 |
| S25L/V29M/W56N/S62E/Q95G/S103T | 940 pM | 6 of 6 |
| S28G/V29S/R60Q | not detected | 0 of 6 |
| S25Q/V29Y/L30G/Y31G/W56H/T59K | 54 nM | 6 of 6 |
| S25V/V29N/W56E | not detected | 0 of 6 |
| S25T/V29C/Y31M/K36F/W56H/H98S | 2.6 nM | 6 of 6 |
| S25L/V29D/S38N/W56H/T59Q | 370 pM | 6 of 6 |
| S28T/Y31A/T59V/E61I/L100K | not detected | 0 of 6 |
| K24S/L100M | 230 nM | 2 of 6 |
| S25L/V29D/S38N/W56S | 370 pM | 6 of 6 |
| K24A/S25L/V29E/N35M/W56N/S62D | 1.9 nM | 6 of 6 |
| S25F/S28L/V29W/W56N/H98R | 290 pM | 6 of 6 |
| S25L/N35T/K36S/W56N | 1.5 nM | 6 of 6 |
| S25L/V29W/S38N/W56N/T59Q/S62D | 2.6 nM | 6 of 6 |
| S25F/Q27I/V29Y/R34M/W56N/A57G | 3.3 nM | 6 of 6 |
| L30Q | not detected | 0 of 6 |
| S25N/Q27W/Y31F/W56D/E61S | 720 pM | 6 of 6 |
| S25V/V29F/K36V/W56G | 650 pM | 6 of 6 |
| L30G/Y31E/R34M/K36Q/W56T | 650 pM | 5 of 6 |
| S25L/S26M/V29Q/N35M/W56N/T59Q | 7.0 nM | 6 of 6 |
| S26D/S28G/W56G | 630 pM | 6 of 6 |
| S26G/S28G/N37A/W56G | 2.2 nM | 6 of 6 |
| Q27I | not detected | 0 of 6 |
| S25L/V29Y/L30G/R34T/K36S/W56D | 1.1 nM | 6 of 6 |
| Q27T/V29Q/L30E/S33D/W56H/S62E | 860 pM | 6 of 6 |
| S28A/W56G/H98F | 550 pM | 6 of 6 |
| S25L/W56G/T59Y | 410 pM | 6 of 6 |
| S25F/S26E/V29Y/W56N/T59Q | 930 pM | 6 of 6 |
| V29D/S33D/R34V | 31 nM | 3 of 6 |
| Y31T/E32Q/R34F/K36R/R99T | 20 nM | 6 of 6 |
| S25L/V29E/W56G/Q96D | 1.2 nM | 6 of 6 |
| S25L/V29D/W56H/Q96D | 21 nM | 6 of 6 |
| S25L/S26Q/V29E/W56N/T59E | 1.5 nM | 6 of 6 |
| S26R/V29G/L30V/Y31G/N37S/W56Q | 41 nM | 4 of 6 |
| R34T/W56S/R60C | 20 nM | 6 of 6 |
| S25V/V29H/W56E/E61C | 2.7 nM | 6 of 6 |
| Q27I/V29Q/R34M/W56N/A57G | 3.9 nM | 6 of 6 |
| S25V/W56D/Q96S | 640 pM | 6 of 6 |
| K24F/R34E/T59E/H98Q | 220 nM | 3 of 6 |
| S25V/V29C/Y31G/W56N/S62K | 1.8 nM | 6 of 6 |
| S25C/S26E/R34Q/L102N | 120 nM | 6 of 6 |
| K24H/Q27P/L30E/W56E | 1.3 nM | 6 of 6 |
| S25V/Y31G/S33Q/W56D/A57I | 1.0 nM | 6 of 6 |
| S25L/V29D/W56N/T59E | 1.2 nM | 6 of 6 |
| W56G/R99G | 790 nM | 2 of 6 |
| S26G/S28G/W56V | not detected | 0 of 6 |
| V29A/Y31D/W56S/S103M | 2.5 nM | 6 of 6 |
| S25L/S26P/V29A/W56N | 290 pM | 6 of 6 |
| S25M/L30P/S33E/W56N/T59K/E61L | 2.3 nM | 6 of 6 |
| Q27P/V29W/S33D/N35V/W56G | 2.8 nM | 6 of 6 |
| S25L/S26Q/W56E/E61C/S62D | 510 pM | 6 of 6 |
| S25F/S26Q/V29Q/W56N/T59Q | 6.9 nM | 6 of 6 |
| S25L/S26E/V29D/W56H | 420 pM | 6 of 6 |
| S28E/V29W/W56Q/S62Q | 760 pM | 6 of 6 |
| S25L/S26P/V29A/W56G | 660 pM | 6 of 6 |
| S25V/Q27G/V29Q/K36S/W56D/T59N | 1.9 nM | 6 of 6 |
| S25T/S26G/S28G/W56G/T59M | 1.6 nM | 6 of 6 |

A sequence measured in both rounds can read differently, since the two assays cover different ranges.
Of ten entries with the parent sequence, four were seen in most replicates (averages 2.2 nM to 240 nM), three in one and three in none, so single entries are noisy.
As a blank, each scFv also met three strains without target: over all light chain designs, 4% of these pairings were detected, typically at 430 nM and seldom below 38 nM.

Values reported by Li et al. 2023, doi:10.1038/s41467-023-39022-2 (FLAb copy).